{
  "source": "paper PMC10724690",
  "about": "“Deciphering specificity and cross-reactivity in tachykinin NK1 and NK2 receptors” (The Journal of Biological Chemistry, 2023)",
  "assay_type_in_all_cases": "cell-based",
  "key": {"NK2R [1]": {"target": "T1, NK2R (Homo sapiens, UniProt P21452)", "T1 construct": "host or cells: COS7", "assay": "IP3 (IP accumulation) assay, wildtype NK2R", "procedure": "COS7 cells (derived from African green monkey kidney fibroblast and originally bought from ThermoFisher) were maintained in Dulbecco´s Modified Eagle´s Medium 1885 with GlutaMAX supplemented with 10% fetal bovine serum (Sigma-Aldrich), 100 units/ml penicillin and 100 μg/ml streptomycin at 37 °C with 10% CO2. COS7 cells were plated in either clear-, white-, or white with clear bottom 96-well plates that were coated with poly-D-lysine (Sigma-Aldrich) 30 min prior to cell seeding (20.000 cells/well). The following day plates were transiently transfected using calcium precipitation with 200 ng/well DNA in a culture medium with the addition of 100 μM (final concentration) Chloroquine. Transfection was stopped 5 h later with the addition of a fresh maintenance medium. Fig. […] COS7 cells seeded in clear 96-well plates were incubated with 0.5 μCi/ml myo [3H]inositol (PerkinElmer) in 100 μl growth medium over night following the transfection. The subsequent day cells were washed twice with 200 μl/well HBSS (GIBCO, Life Technologies) and pre-incubated for 5 min at 37 °C with 100 μl/well HBSS buffer supplemented with 10 mM LiCl. […] Measurements (scintillation) were recorded on a Microbeta (PerkinElmer) after a 4 h delay and determinations were made in duplicates. All dose-response curves have been calculated using Prism 10 software (GraphPad Software) non-linear regression with four parameters. […]"}, "NK2R-K180L": {"target": "T2, NK2R-K180L (Homo sapiens, UniProt P21452, K180L)", "T2 construct": "host or cells: COS7", "assay": "BRET-based cAMP assay, NK2R-K180L", "settings": "COS-7, Fig s6 b (SP activation, Figure S5b)", "procedure": "(§1) COS7 cells (derived from African green monkey kidney fibroblast and originally bought from ThermoFisher) were maintained in Dulbecco´s Modified Eagle´s Medium 1885 with GlutaMAX supplemented with 10% fetal bovine serum (Sigma-Aldrich), 100 units/ml penicillin and 100 μg/ml streptomycin at 37 °C with 10% CO2. COS7 cells were plated in either clear-, white-, or white with clear bottom 96-well plates that were coated with poly-D-lysine (Sigma-Aldrich) 30 min prior to cell seeding (20.000 cells/well). The following day plates were transiently transfected using calcium precipitation with 200 ng/well DNA in a culture medium with the addition of 100 μM (final concentration) Chloroquine. Transfection was stopped 5 h later with the addition of a fresh maintenance medium.\n(§2) The intracellular level of cAMP was monitored in real-time using bioluminescence resonance energy transfer (BRET). […]\n(§3) On the day of the assay, white 96-well plates with COS7 cells were washed twice with 100 μl/well HBSS (GIBCO, Life Technologies) and preincubated for 30 min at 37 °C with 85 μl HBSS. […] The BRET signal was calculated as the ratio of emission intensity at 535 nm (citrine) to the emission intensity at 475 nm (luciferase). […]\n(§4) All dose-response curves have been calculated using Prism 10 software (GraphPad Software) non-linear regression with four parameters. […]"}, "NK2R [2]": {"target": "T1, NK2R", "assay": "BRET-based cAMP assay, wildtype NK2R", "procedure": "as §1, §2, §3, §4"}},
  "data": [
    {"smiles": "CSCC[C@H](NC(=O)[C@H](CC(C)C)NC(=O)CNC(=O)[C@H](Cc1ccccc1)NC(=O)[C@H](Cc1ccccc1)NC(=O)[C@H](CCC(N)=O)NC(=O)[C@H](CCC(N)=O)NC(=O)[C@@H]1CCCN1C(=O)[C@H](CCCCN)NC(=O)[C@@H]1CCCN1C(=O)[C@@H](N)CCCNC(=N)N)C(N)=O", "note": "[SP, substance P]", "values": [
      {"measurement": "Emax", "setting": "NK2R [1]; COS-7, Fig 5a, IP3 assay, NK2R in COS7 cells", "value": 45.2, "unit": "%"},
      {"measurement": "Emax", "setting": "NK2R [1]; COS-7, Fig s6 a (SP activation, Figure S5a), IP3 activation assay, NK2R WT", "value": 100, "unit": "%"},
      {"measurement": "Emax", "setting": "NK2R-K180L", "value": 10.7, "unit": "%"},
      {"measurement": "Emax", "setting": "NK2R [2]; COS-7, Fig 5b, NK2R in COS7 cells, read-out: Emax", "value": 24.3, "unit": "%"},
      {"measurement": "Emax", "setting": "NK2R [2]; Fig s6 b (SP activation, Figure S5b), NK2R WT", "value": "24,32"}
    ]}
  ]
}
